This is a selection: effects in other tests are not listed, and their absence says nothing.
Target: kappa3 opioid receptor (Mus musculus, UniProt P35377)
Test: 3H-Diprenorphine binding in COS-7 cells expressing the kappa3 opioid receptor clone
Conditions: 0.5 mg protein/tube, means±s.e.m.
Protocol: The XhoI/BamHI fragment of the clone was subcloned into a pSRα expression vector at the XhoI/BamHI sites. COS-7 cells were transfected with 30 μg of plasmid DNA/150 mm plate using DEAE-dextran. The transfected cells were grown at 37° C. for 72 hours and the membranes were harvested for binding assays. Control binding was determined using COS-7 cells which were treated with DEAE-dextran and incubated under the same conditions as the transfected cells. ^3H-Diprenorphine binding was determined in samples with 0.5 mg protein/tube. All binding was assayed in triplicate, except for nonspecific binding in the pSRα which was assayed in duplicate. Only specific opioid binding (i.e., total minus nonspecific) is presented. Results are the means±s.e.m.
The XhoI/BamHI fragment of the clone was obtained and subcloned into a pSRα expression vector at the XhoI/BamHI sites and then transfected the COS-7 cells, which were assayed for opioid binding after 72 hours. To control for the treatments, the binding in COS-7 cells was also examined, which cells were exposed to DEAE-dextran and incubated under the same conditions as the transfected cells. Additional studies using pCMV vectors and the same transfection techniques reveal binding values virtually identical to those seen in this control (data not shown). Opioid binding was determined with the antagonist ^3H-diprenorphine.

Protein sequences, listed by entry. Tags and fused reporters are not part of them.
UniProt P35377, whole entry: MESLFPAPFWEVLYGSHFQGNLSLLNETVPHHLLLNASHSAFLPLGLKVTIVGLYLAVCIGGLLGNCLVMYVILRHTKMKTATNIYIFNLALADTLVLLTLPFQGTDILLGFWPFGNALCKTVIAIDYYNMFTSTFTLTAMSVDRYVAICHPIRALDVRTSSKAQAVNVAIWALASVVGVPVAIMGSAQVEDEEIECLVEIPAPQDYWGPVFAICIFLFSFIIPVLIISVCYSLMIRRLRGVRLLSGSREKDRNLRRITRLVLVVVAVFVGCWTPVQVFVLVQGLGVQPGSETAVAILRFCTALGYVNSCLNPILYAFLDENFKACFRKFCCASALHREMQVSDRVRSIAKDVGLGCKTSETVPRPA

Substance: 3H-Diprenorphine
- 3H-Diprenorphine Binding (cpm) (control COS-7 cells treated with DEAE-dextran only, specific binding): 157 ± 20 cpm
- 3H-Diprenorphine Binding (cpm) (membranes of COS-7 cells transfected with the clone in pSRα, specific binding (total minus nonspecific)): 789 ± 79 cpm
